From paper PMC13450841 (PLOS Pathogens, 2026)

Tested on: P. aeruginosa strain PA48386
Conditions: 16-point scale

Question: Which results are given for `O=C([O-])CC(O)(CC(=O)[O-])C(=O)[O-].O=C([O-])CC(O)(CC(=O)[O-])C(=O)[O-].[Bi+3].[K+].[K+].[K+]` [Bis, bismuth subcitrate]?
Answer: Clinical score: median at 48h: 10.75; Clinical score: mean ±SD at 24h (Bis 50 µM, Zp 20 µM, Pol 1 µM topical at 30 min, 4 h, 24 h, no treatment 5.65 ± 2.83): 4.99 ± 3.60; Clinical score: mean SD at 48h (no treatment 10.53 ± 4.40): 9.05 ± 5.27; Clinical score: median at 24h (same cohort): 5.50
